Like-named read-outs stand apart in the source and are kept apart here.
Experiments:
[1] = molecular target: T1, A2 receptors from rat striatal membranes (Rattus norvegicus, UniProt P30543); parameters: Rat cerebral cortical and striatal membranes were prepared; from tissue; host or cells: rat striatal membranes; settings: cited from earlier work
[2] = molecular target: T2, A1 receptors from rat brain membranes (Rattus norvegicus, UniProt P25099); settings: Table 2, footnotes d/e: Gallo-Rodriguez 1994 / van Galen 1994; cited from earlier work
T2 construct: Rat cerebral cortical and striatal membranes were prepared; from tissue; host or cells: rat brain (cerebral cortical) membranes

Sequences of proteins named here, by UniProt entry; tags and fusion partners are left off.
UniProt P30543, whole entry: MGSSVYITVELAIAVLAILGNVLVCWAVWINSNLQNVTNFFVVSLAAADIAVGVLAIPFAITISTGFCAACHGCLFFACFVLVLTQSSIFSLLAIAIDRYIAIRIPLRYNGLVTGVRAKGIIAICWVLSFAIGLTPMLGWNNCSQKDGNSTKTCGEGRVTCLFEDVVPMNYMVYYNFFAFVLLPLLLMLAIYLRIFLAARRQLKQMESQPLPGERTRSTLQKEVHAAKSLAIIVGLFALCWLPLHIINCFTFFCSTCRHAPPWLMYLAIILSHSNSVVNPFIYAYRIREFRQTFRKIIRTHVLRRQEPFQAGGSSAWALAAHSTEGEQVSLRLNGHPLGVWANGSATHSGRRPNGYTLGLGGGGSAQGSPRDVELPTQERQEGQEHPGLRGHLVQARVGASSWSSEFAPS
UniProt P25099, whole entry: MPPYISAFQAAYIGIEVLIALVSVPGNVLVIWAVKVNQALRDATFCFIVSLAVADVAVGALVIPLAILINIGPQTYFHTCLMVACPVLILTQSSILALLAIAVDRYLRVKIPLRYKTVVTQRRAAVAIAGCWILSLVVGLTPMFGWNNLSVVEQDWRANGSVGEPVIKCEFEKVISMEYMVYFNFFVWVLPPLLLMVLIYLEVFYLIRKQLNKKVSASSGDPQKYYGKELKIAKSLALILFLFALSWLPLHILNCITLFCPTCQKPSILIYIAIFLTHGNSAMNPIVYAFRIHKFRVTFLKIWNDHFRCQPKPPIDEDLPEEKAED

[3] = molecular target: T2, A1 receptors from rat brain membranes; type: binding
[4] = molecular target: T1, A2 receptors from rat striatal membranes; assay: biochemical

Compound: C[C@@H](Cc1ccccc1)Nc1ncnc2c1ncn2[C@@H]1O[C@H](CO)[C@@H](O)[C@H]1O (mixture of isomers) [Compound 3, N^6-[(R/S)-1-methyl-2-phenylethyl]adenosine]
- Ki ([1]; read-out: A2 affinity Ki): 1820 nM

Compound: C[C@H](Cc1ccccc1)Nc1ncnc2c1ncn2[C@@H]1O[C@H](CO)[C@@H](O)[C@H]1O [Compound 2, N^6-[(R)-1-methyl-2-phenylethyl]adenosine]
- Ki ([1]; read-out: A2 affinity Ki): 124 nM

Compound: CNC(=O)[C@H]1O[C@@H](n2cnc3c(NCc4cccc(I)c4)ncnc32)[C@H](O)[C@@H]1O [Compound 42, N^6-(3-iodobenzyl)adenosine-5'-N-methyluronamide]
- Ki [2]: 54 nM
- Ki ([3]; rat brain membranes, displacement of [3H]PIA (or [3H]CHA), read-out: A1 affinity Ki): 0.054 ± 0.005 µM
- Ki ([1]; Table 2, footnotes d/e: literature, read-out: Ki (A2)): 56 nM

Compound: CCCCn1c(=O)c2c(ncn2[C@@H]2O[C@H](C(=O)NC)[C@@H](O)[C@H]2O)n(CCCC)c1=O [Compound 124, N-methyl 1,3-di-n-butylxanthine-7-β-D-ribofuronamide]
- inhibition at 100 µM [4]: 19 ± 2%
- Ki ([3]; read-out: Ki (A1)): 37.3 µM

— patent publication US5773423A (priority 1994, dated 1998)
